Values after ≈ are worked out from the molar mass of the structure shown.
How the values were obtained:
[1] = Cytotoxicity against human WPMY-1 cells assessed as inhibition of cell growth incubated for 72 hrs by CCK-8 assay; assay type: toxicity, cell-based
[2] = Hemolytic activity in sheep erythrocytes incubated for 1 hr by absorbance based analysis; assay type: toxicity, cell-based, Ovis aries, Erythrocyte
[3] = Cytotoxicity against human BGC cells assessed as inhibition of cell growth incubated for 72 hrs by CCK-8 assay; assay type: toxicity, cell-based
[4] = tested on: Staphylococcus aureus; assay: Bactericidal activity against Staphylococcus aureus ATCC 29213 in presence of 50% plasma or 50% serum measured after 6 hrs by broth dilution method (reference value: 4 ug/ml); assay type: functional
[5] = tested on: Staphylococcus aureus; assay: Bactericidal activity against Staphylococcus aureus ATCC 29213 in presence of 50% plasma or 50% serum measured immediately by broth dilution method (reference value: 4 ug/ml); assay type: functional
[6] = tested on: Staphylococcus aureus; assay: Bactericidal activity against Staphylococcus aureus ATCC 29213 in presence of 50% plasma or 50% serum measured after 3 hrs by broth dilution method (reference value: 4 ug/ml); assay type: functional
[7] = tested on: Staphylococcus aureus; assay: Antimicrobial activity against Staphylococcus aureus ATCC 29213 incubated for 16 to 20 hrs by CLSI based broth dilution method; assay type: functional; conditions: time 16-20 hrs
[8] = tested on: Escherichia coli; assay: Antimicrobial activity against Escherichia coli ATCC 25922 incubated for 16 to 20 hrs by CLSI based broth dilution method; assay type: functional; conditions: time 16-20 hrs

CC[C@H](C)[C@H](NC(=O)CN)C(=O)NCC(=O)N[C@@H](C)C(=O)N[C@H](C(=O)N[C@@H](CC(C)C)C(=O)N[C@@H](CCCCN)C(=O)N[C@H](C(=O)N[C@@H](CC(C)C)C(=O)N[C@H](C(=O)N[C@H](C(=O)NCC(=O)N[C@@H](CC(C)C)C(=O)N1CCC[C@H]1C(=O)N[C@@H](C)C(=O)N[C@@H](CC(C)C)C(=O)N[C@H](C(=O)N[C@@H](CO)C(=O)N[C@@H](Cc1c[nH]c2ccccc12)C(=O)N[C@H](C(=O)N[C@@H](CCCCN)C(=O)N[C@@H](CCCNC(=N)N)C(=O)N[C@@H](CCCCN)C(=O)N[C@@H](CCCNC(=N)N)C(=O)N[C@@H](CCC(N)=O)C(=O)N[C@@H](CCC(N)=O)C(N)=O)[C@@H](C)CC)[C@@H](C)CC)[C@@H](C)O)[C@@H](C)O)C(C)C)C(C)C [MELITTIN]
IC50 at 72 h [1]: 4.1 µg/mL (≈ 1.44 µM) | HC50 at 1 h [2]: 4 µg/mL | IC50 at 72 h [3]: 8.1 µg/mL (≈ 2.85 µM) | MIC [4]: > 128 µg/mL | MIC [5]: > 128 µg/mL | MIC [6]: > 128 µg/mL | MIC [7]: 4 µg/mL (≈ 1.41 µM) | MIC [8]: 4 µg/mL (≈ 1.41 µM)

From ChEMBL document CHEMBL5331085 (Eur J Med Chem, 2023)
